Target: EGFR on EGFR positive human cancer cells (MDA-MB-468, A431) (human) (UniProt P00533)
Test: cell-based or functional assay

IC50, cell proliferation assay (Cell Titer Glo, 4 d), EGFR positive cells (MDA-MB-468, A431): 780 to 990 pM
Substance: C-Fab-MMAE

From patent US20240226319A1, “EGFR TARGETING FC ANTIGEN BINDING FRAGMENT-DRUG CONJUGATES” (MERCK PATENT GMBH, priority 2021, published 2024)
